The subject of the experiment is rats. Briefly: Radial maze (8-arm maze working memory) test in rats, ketamine-induced deficit. The conditions noted are these: ip. administration, FIG. 3.

For `COc1ccc2oc(C3=NN=C(C)Cc4cc5c(cc43)OC(C)C(=O)N5)c(C)c2c1` (single isomer, unassigned; (+)) [Example 4, (+)-6-(5-Methoxy-3-methyl-1-benzofuran-2-yl)-3,9-dimethyl-1,10-dihydro[1,4]oxazino[3,2-h][2,3]benzodiazepin-2(3H)-one], the “Effect on ketamine-induced deficit in working memory” value is “Reduction of the ketamine-induced deficit in working memory”.

The values above are taken from US9926332B2, “Dihydro-oxazinobenzodiazepine compounds, a process for their preparation and pharmaceutical compositions containing them” (priority 2014, dated 2018).
